What was measured:
[1] = Glass transition temperature (Tg) by modulated differential scanning calorimetry (mDSC); type: physicochemical; settings: precipitated salts of Compound 1; for Tg (° C.) First heating: first heating cycle; for Tg (° C.) Second heating: second heating cycle (intrinsic Tg in dry state)
Description: Modulated differential scanning calorimetry (mDSC) was used to characterize salts of the invention. Solid samples were placed in hermetically sealed aluminum pan with a pinhole. Modulation amplitude of ±0.8° C. with a period of 60 sec was applied to the sample heated at 2° C./min under dried nitrogen purge using TA instruments (New Castle, Del., USA) model 1000.
Heat-cool-heat cycles were applied to allow for moisture evaporation during first heating cycle and to erase thermal history of the sample, which allowed for the determination of the intrinsic glass transition temperature (Tg) in dry state.

[2] = Hygroscopicity at room temperature (weight gain and visual phase transition after 24 hours at controlled RH); type: physicochemical; settings: for Phase transition: visual observation
Description: Hygroscopicity of salts of invention were measured by placing 20-50 mg of the sample in an uncapped scintillation vial. The vial was stored at ambient temperature in a Pyrex brand desiccator (VWR, International, CT). […] The relative humidity was confirmed using a digital hygrometer pen (VWR International, CT). An empty scintillation vial was also placed in the desiccator as a control. […] Visual observation of phase transition was also noted.

| Substance | Tg (° C.) First heating [1] | Tg (° C.) Second heating [1] | % weight gain ([2]; 55% RH) | Phase transition ([2]; 55% RH) | % weight gain ([2]; 75% RH) | Phase transition ([2]; 75% RH) |
| --- | --- | --- | --- | --- | --- | --- |
| bromide | 68 °C | 68 °C | 3.24% | No | 6.0% | Yes |
| nicotinate | 19.6 °C | 36 °C | – | Yes | – | Yes |

Reference: patent US20140187771A1, “AMORPHOUS SOLID SALTS” (Gilead Sciences, Inc., priority 2011, published 2014)
